Results: patent US9464093B2, “Substituted imidazo[4',5':4,5]cyclopenta[1,2-e]pyrrolo[1,2-a]pyrazines and oxazolo[4',5':4,5]cyclopenta[1,2-e]pyrrolo[1,2-a]pyrazines for treating brain cancer” (Mayo Foundation for Medical Education and Research, priority 2012, dated 2016)

Assay: CNS pharmacokinetic study in mice (microdialysis, CE-UV)
Type: in vivo, C57BL/6J mice
Details: male, C57BL/6J, mouse, CSF (lateral ventricle microdialysate) / serum, ip, 2.5 mg/kg i.p., read-out: CNS penetration (CSF-to-serum AUC ratio)
Method: The total of 90 male wild type C57BL/6J mice were used in this study. C57BL/6J mice were approximately 2 months of age and weighed 20˜25 g. All mice were housed in a temperature-controlled room ([…]) with a 12:12 light dark cycle (lights on at 0600). Purina 5001 Rodent Chow and tap water were available ad libitum at all times. Mouse use was approved by Mayo Foundation Institutional Animal Use and Care Committee (IACUC) and was consistent with NIH Guide for the Care and Use of Laboratory Animals. Agelastatin A was synthesized by Professor Takehiko Yoshimitsu at Graduate School of Pharmaceutical Sciences, Osaka University, Osaka, Japan. Professor Yoshimitsu has described details on the synthesis of this compound. Purity as determined by NMR spectra is >99%.
A total of five mice were used in microdialysis experiments. On the day of surgery, mice were anesthetized with gasiform isoflurane (1% isoflurane in a mixture of 20% oxygen and 80% nitrogen gas) and immobilized in a stereotaxic frame (KOPF Instruments, Tujunga, Calif.). Anesthesia was maintained during the entire procedure. […]
Agelastatin A in the microdialysate, serum, brain and eye tissues was measured by CE-UV (Agilent 3D CE). […] The absorbance from Agelastatin A was detected with UV at 280 nanomoles. […] CNS penetration was determined as the ratio of CSF and blood area under the curve (AUC).

CN1C(=O)N[C@H]2[C@@H]3NC(=O)c4ccc(Br)n4[C@@H]3C[C@]21O [AA, agelastatin A, reference compound]
Kp: 0.101
